Laboratory results taken from publication PMC6748613 (mAbs, 2019).

Biological target: vascular endothelial growth factor (VEGF)-A, isoform 165 (Homo sapiens, UniProt P15692-4)
Experiment: SPR

ΔΔG_bind against the parental Fab: -2.42 kcal/mol
B1: bH1-Fab variant W^H33-F^H98-M^H99-R^L30b (Fab, V domains shown)
VH: EVQLVESGGGLVQPGGSLRLSCAASGFNIKDTWIHWVRQAPGKGLEWVARIYPTNGYTRYADSVKGRFTISADTSKNTAYLQMNSLRAEDTAVYYCSRWGGFMFYAMDYWGQGTLVTVSS
VL: DIQMTQSPSSLSASVGDRVTITCRASQDIPRRISGYVAWYQQKPGKAPKLLIYWGSYLYSGVPSRFSGSGSGTDFTLTISSLQPEDFATYYCQQHYTTPPTFGQGTKVEIK
